pIC50: −log10 of the molar value.

Amino acid sequences for entries named in this document (tags omitted).
UniProt Q99685, whole entry, species assumed: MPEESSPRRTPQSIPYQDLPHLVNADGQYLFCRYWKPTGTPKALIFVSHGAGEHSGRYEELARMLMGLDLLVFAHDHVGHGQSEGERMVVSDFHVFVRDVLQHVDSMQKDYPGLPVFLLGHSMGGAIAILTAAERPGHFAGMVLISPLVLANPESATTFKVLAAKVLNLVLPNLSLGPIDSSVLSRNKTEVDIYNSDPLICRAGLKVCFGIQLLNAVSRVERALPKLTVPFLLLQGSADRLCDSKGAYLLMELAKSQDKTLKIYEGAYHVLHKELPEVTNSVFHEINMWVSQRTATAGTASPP

Drawing on patent publication US20250059185A1 (Hoffmann-La Roche Inc., priority 2021, published 2025), this text covers IC50 for two substances.

The target in this assay is MAGL (Homo sapiens (Human), UniProt Q99685). In words: 2-AG assay (MAGL inhibitory activity, hydrolysis of 2-arachidonoylglycerol followed by mass spectrometry). It counts as biochemical. The conditions noted are these: 50 pM MAGL protein, 15 min pre-incubation, 30 min incubation at RT. From the text: Compounds of formula (II) were profiled for MAGL inhibitory activity by determining the enzymatic activity by following the hydrolysis of the natural substrate 2-arachidonoylglycerol (2-AG) resulting in arachidonic acid, which can be followed by mass spectrometry. This assay is hereinafter abbreviated “2-AG assay”.
Compounds of formula (II) were profiled for MAGL inhibitory activity by determining the enzymatic activity by following the hydrolysis of the natural substrate 2-arachidonoylglycerol (2-AG) resulting in arachidonic acid, which can be followed by mass spectrometry. This assay is hereinafter abbreviated “2-AG assay”. The 2-AG assay was carried out in 384 well polypropylene assay plates. Compound dilutions were made in 100% DMSO in a polypropylene plate in 3-fold dilution steps to give a final concentration range in the assay from 12.5 μM to 0.8 pM. Compound dilutions were added to MAGL protein in assay buffer (50 mM TRIS, 1 mM EDTA, 0.01% (v/v) Tween-20, 2.5% (v/v) DMSO). After shaking, the plate was incubated for 15 min at RT. To start the reaction, 2-arachidonoylglycerol in assay buffer was added. The final concentrations in the assay was 50 pM for MAGL protein and 8 pM 2-arachidonoylglyerol. […] The activity of the compounds was calculated based on the ratio of intensities [arachidonic acid/d8-arachidonic acid].

In turn, “4-[2-chloro-5-fluoro-3-[(7R)-3-[3-fluoro-5-[[methyl(dioxo)-λ^6-phosphanyl]methyl]phenyl]-2,7-dimethyl-5,7-dihydro-4H-pyrazolo[3,4-c]pyridine-6-carbonyl]phenyl]-1H-pyrrole-2-carbonitrile [Example 83]” gave a pIC50 of 5.35. “4-[2-chloro-5-fluoro-3-[(7S)-3-[3-fluoro-5-[[methyl(dioxo)-λ^6-phosphanyl]methyl]phenyl]-2,7-dimethyl-5,7-dihydro-4H-pyrazolo[3,4-c]pyridine-6-carbonyl]phenyl]-1H-pyrrole-2-carbonitrile [Example 82]” showed a pIC50 of 7.01.

Usually pIC50 stands for the negative decadic logarithm of the IC50, by convention in mol/L.
